This is one part of the list.
These molecules were tested on A. baumannii ATCC 17978 (assay: relative growth (fraction of control); higher = less inhibition). Conditions: 50 µM.

Structure (SMILES) | relative growth
CO[C@@H](C)n1cc(Br)c(=O)[nH]c1=O | 1.03
Cc1cc(-c2nnc(N)o2)nn1C | 1.09
COC(=O)CN1C(=O)COc2ccc(C)cc21 | 1.05
C[C@@H]1CN([C@@H](C)CO)C(=O)c2cc(C#CCN(C)C)cnc2O[C@H]1CN(C)C(=O)CCN1CCCCC1 | 1.26
O=C(C[C@H]1CC[C@@H](NC(=O)Cc2ccccn2)[C@@H](CO)O1)NCCCN1CCOCC1 | 1.01
NC(=O)NC(=O)C[C@H]1Nc2ccccc2NC1=O | 1.01
Cc1ccc(S[C@]2(C(=O)O)CC(=O)N(Cc3ccccc3Cl)[C@@H]2c2ccc(CO)cc2I)cc1 | 1.03
CC(=O)Nc1ccc(OC(C)=O)cc1 | 1.03
CCC1(C)CC(=O)NC1=O (stereo unspecified) | 1.07
Cc1cccc(S(=O)(=O)N2C[C@@H](O)COC[C@H]3O[C@H](CC(=O)NCCCN4CCOCC4)CC[C@@H]32)c1 | 0.98
Cc1oc(C(C)(C)C)cc1C(=O)Nc1ccc(C(C)C)cc1 | 0.977
C[N+](C)(CCOc1ccccc1)Cc1ccccc1.O=C([O-])c1cc2ccccc2cc1O | 0.859
CCN(CC)CC(=O)Nc1c(C)cccc1C.Cl | 0.97
O=C(C[C@H]1CC[C@@H]2[C@H](COC[C@H](O)CN2C(=O)c2ccccc2F)O1)N1CCN(c2ccccc2)CC1 | 1.03
O=[N+]([O-])c1ccc(O)c2ncccc12 | 0.157
CN(C)Cc1cn(CC[C@@H]2CC[C@H](NS(=O)(=O)c3ccccc3)[C@@H](CO)O2)nn1 | 1.06
c1ccc(/N=C2\S/C(=N\C3CCCCC3)C3=C2CCCC3)cc1 | 1.11
Cc1ccc(S(=O)(=O)NCC[C@@H]2CC[C@H](NS(=O)(=O)c3ccccc3Cl)[C@H](CO)O2)cc1 | 0.974
C/C=C(/C)C(=O)O[C@@H]1[C@H](OC(C)=O)[C@@]2(CO)C(CC1(C)C)C1=CCC3[C@@]4(C)CC[C@H](O[C@@H]5O[C@H](C(=O)O)[C@@H](O[C@@H]6O[C@H](CO)[C@@H](O)[C@H](O)[C@H]6O)[C@H](O)[C@H]5O[C@@H]5O[C@H](CO)[C@@H](O)[C@H](O)[C@H]5O)[C@](C)(CO)C4CC[C@@]3(C)[C@]1(C)C[C@H]2O (stereo partly specified) | 0.909
O=C(C[C@@H]1CC[C@@H]2[C@H](COC[C@H](O)CN2S(=O)(=O)c2ccccc2)O1)N1CCOCC1 | 0.952
NNC(=O)c1ccncc1.Nc1ccc(C(=O)O)c(O)c1 | 0.963
O=C1CC[C@]23/C=C/C(=O)NCCCCNCCCNC(=O)/C=C/c4ccc(c2c4)O[C@@H]3C1 | 0.971
CN(C)CCOc1ccc([N+](=O)[O-])cn1 | 1.03
NC(=O)c1ccccc1NC(=O)CCC(=O)O | 1.22
CC(O)(CC(=O)O)CC(=O)O | 0.903
CNCCCC1c2ccccc2C=Cc2ccccc21.Cl | 1.07

Structure (SMILES) | relative growth
COC(=O)[C@@H]1C[C@@H](C#N)N[C@@H]1c1ccccn1 | 1.04
COc1ccc([Si](C)(C)[C@H]2[C@H](CC(=O)N(CCO)Cc3ccccc3)O[C@@]3(C(=O)N(C)c4c(Br)cc(C)cc43)[C@@H]2C)cc1 | 0.674
CC(=O)O[C@@H]1CC2C(C)(C)[C@H](O)CC[C@]2(C)C2CC[C@@]3(C)[C@H](c4ccoc4)OC(=O)C4OC43[C@@]21C (stereo partly specified) | 0.92
CCC(C)(C)C(=O)O[C@H]1C[C@@H](C)C=C2C=C[C@H](C)[C@H](CC[C@@H]3C[C@@H](O)CC(=O)O3)[C@H]21 | 0.885
C[C@H]1CN([C@@H](C)CO)C(=O)c2cc(-c3cccc(C(=O)N(C)C)c3)cnc2O[C@H]1CN(C)S(=O)(=O)c1cccc(F)c1 | 1.15
O=C(C[C@H]1CC[C@@H](NC(=O)C2CC2)[C@H](CO)O1)NCCCN1CCOCC1 | 1.04
CCCN(CCC)CCc1cccc2c1CC(=O)N2.Cl | 1.04
O=C(C[C@H]1CC[C@H]2[C@@H](COC[C@@H](O)CN2S(=O)(=O)c2ccc(Oc3ccccc3)cc2)O1)NCCN1CCCCC1 | 0.934
O=C(C[C@@H]1C=C[C@H](NS(=O)(=O)c2ccc(F)cc2)[C@H](CO)O1)N1CCC(Cc2ccccc2)CC1 | 0.796
C[C@@H]1CN([C@@H](C)CO)C(=O)c2cc(C#Cc3ccccc3F)cnc2O[C@H]1CN(C)C(=O)c1ccc2c(c1)OCO2 | 1.05
COc1ccc(CCN2C(=O)[C@@]3(Cc4ccccc42)c2ccccc2C(=O)N(C2CCCCC2)[C@H]3c2ccc(CO)cc2)cc1 | 0.981
COc1ccccc1OCCNCC(O)COc1cccc2[nH]c3ccccc3c12.O=P(O)(O)O (stereo unspecified) | 1.28
CCOC(=O)CC(=O)N1CCSC1COc1ccccc1OC (stereo unspecified) | 1.25
CC(=O)Oc1ccc(C(c2ccc(OC(C)=O)cc2)c2ccccn2)cc1 | 0.873
COc1ccc(S(=O)(=O)N(C)C[C@H]2Oc3c(NC(=O)Nc4cccc5ccccc45)cccc3C(=O)N([C@H](C)CO)C[C@H]2C)cc1 | 0.955
C[C@H](O)C#Cc1ccc2c(c1)O[C@@H](CN(C)C(=O)c1ccccc1)[C@@H](C)CN([C@@H](C)CO)S2(=O)=O | 1.06
C[C@@H]1CN([C@@H](C)CO)S(=O)(=O)c2ccc(C#CC3(O)CCCC3)cc2O[C@@H]1CN(C)C(=O)Cc1cccnc1 | 0.952
C/C=C/c1ccc2c(c1)O[C@@H](CN(C)Cc1ccc(C(=O)O)cc1)[C@H](C)CN([C@H](C)CO)S2(=O)=O | 0.976
O=C(N/N=C/[C@H](O)[C@H](O)[C@@H](O)[C@@H](O)CO)c1ccccc1O | 0.862
O=C(N[C@@H]1CC[C@@H](CCn2cc(C3(O)CCCC3)nn2)O[C@@H]1CO)C1CCOCC1 | 1.09
C[C@@H]1CN([C@@H](C)CO)C(=O)c2cc(C#CCN(C)C)cnc2O[C@@H]1CN(C)C(=O)c1cnccn1 | 0.973
C=CC[C@@H](CC(=O)N(CCO)Cc1ccccc1)C(=O)NC[C@H](OC(=O)[C@@H](CC=C)Cc1ccc(F)cc1)c1ccccc1 | 1.17
O=C(C[C@@H]1C[C@H]2c3cc(NS(=O)(=O)c4ccc(F)cc4)ccc3O[C@H]2[C@H](CO)O1)N1CCCCC1 | 1.25
O=C(O)C[C@@H]1CC[C@@H]2[C@H](COC[C@H](O)CN2S(=O)(=O)c2ccc(F)cc2)O1 | 1.05
COC(=O)c1c2oc(c1C(=O)OC)C(=O)N[C@@H](Cc1ccccc1)Cn1cc(nn1)[C@@H](Cc1ccccc1)NC(=O)N[C@H](CO)CC2 | 1.23
